Source: paper PMC4740573 (Clinical Drug Investigation, 2015)

The chains behind the UniProt entries cited, without tags or fusion partners. Residues count along the entry.
UniProt P00743, 41-180 limits assumed: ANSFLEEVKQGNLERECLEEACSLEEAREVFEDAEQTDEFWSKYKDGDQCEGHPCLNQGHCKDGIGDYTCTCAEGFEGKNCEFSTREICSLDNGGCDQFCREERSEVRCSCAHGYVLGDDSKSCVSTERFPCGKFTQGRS
UniProt P00743, 234-492 limits assumed: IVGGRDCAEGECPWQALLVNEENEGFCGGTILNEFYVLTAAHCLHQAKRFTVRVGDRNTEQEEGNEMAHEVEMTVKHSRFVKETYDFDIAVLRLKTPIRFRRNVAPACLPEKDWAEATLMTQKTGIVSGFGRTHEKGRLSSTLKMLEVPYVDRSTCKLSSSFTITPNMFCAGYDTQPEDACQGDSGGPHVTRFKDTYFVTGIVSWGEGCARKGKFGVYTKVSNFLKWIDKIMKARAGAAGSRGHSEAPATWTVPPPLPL

Molecular target: factor Xa (FXa) (Bos taurus, UniProt P00743)
Experiment: Anti-FXa, Biophen heparin 6 assay
Format: in vivo, human
Details: for Anti-FXa A max / Anti-FXa A min / Anti-FXa AUEτ: mean ± SD
[1] = day 4, edoxaban after switching from dabigatran etexilate (treatment 3)
[2] = day 4, edoxaban after switching from rivaroxaban (treatment 2)
[3] = day 4, edoxaban alone (treatment 1)

- Anti-FXa A max [1]: 2.83 ± 1.27 IU/mL
- Anti-FXa A min [1]: 0.100 ± 0.000 IU/mL
- Anti-FXa AUEτ [1]: 17.3 ± 5.31 IU/mL·h
- Anti-FXa T max (day 4, edoxaban after switching from dabigatran etexilate (treatment 3), median (minimum, maximum)): 1.00 (0.50, 3.00) h
- Anti-FXa A max [2]: 3.23 ± 1.10 IU/mL
- Anti-FXa A min [2]: 0.17 ± 0.09 IU/mL
- Anti-FXa AUEτ [2]: 21.9 ± 5.26 IU/mL·h
- Anti-FXa A max [3]: 3.14 ± 0.944 IU/mL
- Anti-FXa A min [3]: 0.12 ± 0.03 IU/mL
- Anti-FXa AUEτ [3]: 20.7 ± 4.36 IU/mL·h
- time to peak effect on anti-FXa (edoxaban alone (treatment 1), return to baseline by 24 h): 1 to 2 h
Compound: CN1CCc2nc(C(=O)N[C@@H]3C[C@@H](C(=O)N(C)C)CC[C@@H]3NC(=O)C(=O)Nc3ccc(Cl)cn3)sc2C1 [Edoxaban, edoxaban]
